Measurements: patent US4889861A, “Substituted imidazo[1,5-a]pyridine derivatives and other substituted bicyclic derivatives and their use as aromatase inhibitors” (Ciba-Geigy Corp., priority 1987, dated 1989)

Tested on: aromatase
Experiment: in vivo inhibition of aromatase activity: suppression of ovarian estrogen content of PMS-hCG primed female rats
Parameters: species or system rat

Structure (SMILES)	inhibition of estrogen synthesis (rat, in vivo)	minimal effective dose (Rattus norvegicus, po, aromatase inhibition (suppression of ovarian estrogen content of female rats)) [mg/kg]
N#Cc1ccc(C2CCCc3cncn32)cc1 (racemic) [5-(p-Cyanophenyl)-5,6,7,8-tetrahydroimidazo[1,5-a]-pyridine]	statistically significant inhibition of estrogen synthesis	–
Brc1ccc(C2CCCc3cncn32)cc1 (centres unmarked) [Example 17, 5-(p-Bromophenyl)-5,6,7,8-tetrahydroimidazo[1,5-a]-pyridine]	–	0.133
